For experiment [1], the target named is T1, Protein deacetylase HDAC6 (Homo sapiens, UniProt Q9UBN7).
T1 sequence (Q9UBN7 whole entry): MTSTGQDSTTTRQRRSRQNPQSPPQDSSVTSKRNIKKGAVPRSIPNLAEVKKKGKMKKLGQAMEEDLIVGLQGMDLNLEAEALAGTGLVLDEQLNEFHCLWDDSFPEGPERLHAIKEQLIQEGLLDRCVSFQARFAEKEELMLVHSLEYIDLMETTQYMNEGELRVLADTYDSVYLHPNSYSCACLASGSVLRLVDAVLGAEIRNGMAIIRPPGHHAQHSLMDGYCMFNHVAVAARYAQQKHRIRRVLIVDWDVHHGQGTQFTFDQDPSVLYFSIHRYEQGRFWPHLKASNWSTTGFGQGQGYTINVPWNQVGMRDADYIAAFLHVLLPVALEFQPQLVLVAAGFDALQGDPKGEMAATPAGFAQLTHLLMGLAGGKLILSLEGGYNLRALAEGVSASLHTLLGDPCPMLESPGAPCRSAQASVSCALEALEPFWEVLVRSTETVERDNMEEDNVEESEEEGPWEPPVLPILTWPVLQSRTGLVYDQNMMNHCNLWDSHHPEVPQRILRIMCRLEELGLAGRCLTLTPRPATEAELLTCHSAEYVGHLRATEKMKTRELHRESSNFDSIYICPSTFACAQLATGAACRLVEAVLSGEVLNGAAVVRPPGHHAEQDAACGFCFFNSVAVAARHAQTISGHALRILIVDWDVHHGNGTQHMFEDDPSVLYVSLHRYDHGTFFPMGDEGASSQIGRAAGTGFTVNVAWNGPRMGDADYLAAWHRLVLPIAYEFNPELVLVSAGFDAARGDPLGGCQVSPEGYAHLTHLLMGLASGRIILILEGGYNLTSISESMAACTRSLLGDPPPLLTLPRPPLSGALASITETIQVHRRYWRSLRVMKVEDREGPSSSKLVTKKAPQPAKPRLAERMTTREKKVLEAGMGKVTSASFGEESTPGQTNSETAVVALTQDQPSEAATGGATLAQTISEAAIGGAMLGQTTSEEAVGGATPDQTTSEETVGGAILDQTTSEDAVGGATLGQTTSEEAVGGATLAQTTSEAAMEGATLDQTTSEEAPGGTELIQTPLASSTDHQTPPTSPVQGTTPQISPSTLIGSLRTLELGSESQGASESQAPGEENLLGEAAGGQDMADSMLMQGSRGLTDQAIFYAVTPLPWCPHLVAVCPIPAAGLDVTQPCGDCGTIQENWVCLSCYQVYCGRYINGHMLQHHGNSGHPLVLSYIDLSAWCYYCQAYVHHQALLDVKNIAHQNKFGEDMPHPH
Kind of experiment: Inhibition of human recombinant HDAC6 after 30 mins by fluorometric assay.

Chains of the proteins cited; added tags and fusions are not shown.
UniProt Q92769, whole entry: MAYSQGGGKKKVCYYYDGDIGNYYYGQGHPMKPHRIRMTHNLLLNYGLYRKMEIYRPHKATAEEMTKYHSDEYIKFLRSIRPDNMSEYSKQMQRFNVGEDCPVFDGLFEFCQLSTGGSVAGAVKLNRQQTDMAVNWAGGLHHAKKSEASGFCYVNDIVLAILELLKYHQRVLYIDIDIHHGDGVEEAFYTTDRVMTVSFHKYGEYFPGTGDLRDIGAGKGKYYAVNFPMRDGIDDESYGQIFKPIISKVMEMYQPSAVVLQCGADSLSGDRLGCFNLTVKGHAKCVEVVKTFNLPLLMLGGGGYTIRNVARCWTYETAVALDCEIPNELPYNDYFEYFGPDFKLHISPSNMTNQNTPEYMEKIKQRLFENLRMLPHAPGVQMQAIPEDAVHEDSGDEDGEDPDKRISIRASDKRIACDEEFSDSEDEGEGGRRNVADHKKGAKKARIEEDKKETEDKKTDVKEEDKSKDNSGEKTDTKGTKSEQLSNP

A further experiment addresses Histone deacetylase 2 (Homo sapiens, UniProt Q92769). Kind of experiment: Inhibition of human recombinant HDAC2 after 30 mins by fluorometric assay.

The results in this text go back to ChEMBL document CHEMBL2046324, “Synthesis and biological evaluation of 1-arylsulfonyl-5-(N-hydroxyacrylamide)indoles as potent histone deacetylase inhibitors with antitumor activity in vivo” (J Med Chem, 2012).

As for `O=C(/C=C/c1ccc2c(ccn2S(=O)(=O)c2ccccc2)c1)NO`, the IC50 turned out to be 1 nM in experiment [1] and 4 nM on Histone deacetylase 2.
